The nature of this data set: Drug release kinetics (prodrug cleavage) in human blood plasma. The class given is in vitro ADME. Conditions: 100 % human plasma, 37 °C, [ASS]0 = 560 µM.

Structures are written as SMILES.

Consider `CC(=O)Oc1ccccc1C(=O)O` [Acetylsalicylic acid, reference compound], for which the half-life (in general, how long it takes for the measured level to halve) at 560 µM turned out to be 2.43 ± 0.317 h.

Values taken from EP4592276A1, “NOVEL ACY[…] OF PSILOCIN AND RELATED 4-HYDROXYT[…] BY AN EFFICIENT […] APPROACH” (Universität Heidelberg, priority 2024, dated 2025).
